Broadly, the IC50 is the point on the concentration scale where inhibition reaches its midpoint.

The chains behind the UniProt entries cited, without tags or fusion partners. Residues count along the entry.
UniProt Q8N5Z0, 30-425: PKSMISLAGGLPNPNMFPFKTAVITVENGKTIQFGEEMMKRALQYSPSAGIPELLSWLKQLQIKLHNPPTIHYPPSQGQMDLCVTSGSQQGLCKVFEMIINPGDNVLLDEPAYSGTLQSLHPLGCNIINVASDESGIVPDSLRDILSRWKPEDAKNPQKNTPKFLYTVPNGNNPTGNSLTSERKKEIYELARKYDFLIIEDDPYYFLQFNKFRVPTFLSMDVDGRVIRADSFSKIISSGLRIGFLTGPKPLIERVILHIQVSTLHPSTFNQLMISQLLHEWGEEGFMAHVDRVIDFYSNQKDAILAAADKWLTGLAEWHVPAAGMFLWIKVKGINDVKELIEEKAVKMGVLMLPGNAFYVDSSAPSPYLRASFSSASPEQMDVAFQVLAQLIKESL

The target in the experiment is human recombinant KAT-II (Homo sapiens (Human), UniProt Q8N5Z0). Description: KAT-II inhibitory test. Type of experiment: biochemical. The conditions noted are these: 3.0 μmol/L kynurenine, 37° C., 1 hr, pH 8.0; kynurenic acid quantified by HPLC. As for the experimental part:
The compounds described in the above-mentioned Examples were used for the KAT-II inhibitory test.
Preparation of Human Recombinant KAT-II
Human recombinant KAT-II was prepared as follows.
His tag and maltose binding protein tag were added to the N-terminal of a gene encoding human KAT-II (Genbank accession number: AF481738.1), and the obtained gene was incorporated into pET32 (Merck Nihon Millipore), which is an Escherichia coli expression vector. Human recombinant KAT-II produced by BL21(DE3) Escherichia coli (Merck Nihon Millipore, 69450) transformed using the plasmid was purified using an amylose resin column (New England Biolabs, #800-21 L).
The inhibitory action of the test compound on human recombinant KAT-II was determined by the following method.
To a reaction mixture (45 μL) containing 3.0 μmol/L kynurenine, 10 μmol/L pyridoxal phosphate, 2.0 ng/μL human recombinant KAT-II, and 150 mmol/L tris(hydroxymethyl)aminomethane-acetate buffer (pH 8.0) was added a 10% dimethyl sulfoxide solution (5 μL) of each test compound prepared, and the mixture was reacted at 37° C. for 1 hr. After the reaction, 50% trichloroacetic acid (5 μL) was added to terminate the reaction.
The resultant kynurenic acid was quantified as follows by high performance liquid chromatography. An enzyme reaction mixture was separated by an octadecylsilane reversed-phase column (SC-50DS, Eicom Corporation; mobile phase: 250 mmol/L zinc acetate, 50 mmol/L sodium acetate, and 5.0% acetonitrile (pH 6.2)) incubated at 30° C., and kynurenic acid was quantified using a fluorescence detector (RF-20Axs, Shimadzu Corporation) at excitation wavelength 354 nm, detection wavelength 460 nm. The analytical curve was drawn every time by an external standard method. Each test compound was tested by dual measurement at each concentration. The kynurenic acid level in the presence of a test compound at each concentration was converted into % relative to kynurenic acid resulting from a reaction with an enzyme alone as 100%, and the obtained values were fitted to S-curve to determine IC50.

As to `Cn1ccn2c(=O)c3nc(N4CCC[C@@H]4C(=O)NCc4ccccc4)sc3nc12` [Example 603, (R)-N-benzyl-1-(5-methyl-9-oxo-5,9-dihydroimidazo[1,2-a][1,3]thiazolo[5,4-d]pyrimidin-2-yl)pyrrolidine-2-carboxamide], the IC50 amounted to 4.9 nM.

`[2H]C([2H])(NC(=O)[C@H]1CCCN1c1nc2c(=O)n(C)c(-c3ccccc3)nc2s1)c1ccccc1` [Example 265, (R)-N-[dideuterio(phenyl)methyl]-1-(6-methyl-7-oxo-5-phenyl-6,7-dihydro[1,3]thiazolo[5,4-d]pyrimidin-2-yl)pyrrolidine-2-carboxamide]: the IC50 came out at 5.4 nM.

In the case of `Cn1c(-c2ccccc2)nc2sc(N3CCC[C@@H]3C(=O)NCc3ccccc3)nc2c1=O` [Example 178, (R)-N-benzyl-1-(6-methyl-7-oxo-5-phenyl-6,7-dihydro[1,3]thiazolo[5,4-d]pyrimidin-2-yl)pyrrolidine-2-carboxamide], the IC50 came out at 12 nM.

Take `CC(C)(F)c1nc2sc(N3CCC[C@@H]3C(=O)NCc3ccccc3)nc2c(=O)[nH]1` [Example 482, (R)-N-benzyl-1-[5-(2-fluoropropan-2-yl)-7-oxo-6,7-dihydro[1,3]thiazolo[5,4-d]pyrimidin-2-yl]pyrrolidine-2-carboxamide]: the IC50 turned out to be 9.7 nM.

Turning to `[2H]C([2H])(NC(=O)[C@H]1CCCN1c1nc2c(=O)n(C([2H])([2H])[2H])c(-c3ccccc3)nc2s1)c1ccccc1` [Example 560, N-[dideuterio(phenyl)methyl]-1-[7-oxo-5-phenyl-6-(trideuteriomethyl)-6,7-dihydro[1,3]thiazolo[5,4-d]pyrimidin-2-yl]pyrrolidine-2-carboxamide], the IC50 was 11 nM.

The values are drawn from patent US10065972B2, “Bicyclic or tricyclic heterocyclic compound” (MITSUBISHI TANABE PHARMA CORPORATION, priority 2014, dated 2018).
